Experimental findings from patent US20140135396A1, “Treatment of Acetaminophen-Induced Liver Damage by the Administration of Modulators of Nitric Oxide” (BETH ISRAEL DEACONESS MEDICAL CENTER, INC., priority 2011, published 2014) are described below.

The experiment deals with lfabp:GFP embryos. Description: APAP-induced liver injury in zebrafish larvae, sub-lethal dose (liver size, BrdU). Format: in vivo. The settings on record: APAP 5 mM 48-60 hpf, treatment in recovery phase 60-96 hpf; L-NAME 10 μM, NAC 10 μM, GSNORi 1 μM.

As for `CC(=O)N[C@@H](CS)C(=O)O` [NAC, N-acetylcysteine], the liver size result is given as “enhance liver size”.
